Amino acid sequences for entries named in this document (tags omitted). Residues count along the entry.
UniProt Q92993, whole entry: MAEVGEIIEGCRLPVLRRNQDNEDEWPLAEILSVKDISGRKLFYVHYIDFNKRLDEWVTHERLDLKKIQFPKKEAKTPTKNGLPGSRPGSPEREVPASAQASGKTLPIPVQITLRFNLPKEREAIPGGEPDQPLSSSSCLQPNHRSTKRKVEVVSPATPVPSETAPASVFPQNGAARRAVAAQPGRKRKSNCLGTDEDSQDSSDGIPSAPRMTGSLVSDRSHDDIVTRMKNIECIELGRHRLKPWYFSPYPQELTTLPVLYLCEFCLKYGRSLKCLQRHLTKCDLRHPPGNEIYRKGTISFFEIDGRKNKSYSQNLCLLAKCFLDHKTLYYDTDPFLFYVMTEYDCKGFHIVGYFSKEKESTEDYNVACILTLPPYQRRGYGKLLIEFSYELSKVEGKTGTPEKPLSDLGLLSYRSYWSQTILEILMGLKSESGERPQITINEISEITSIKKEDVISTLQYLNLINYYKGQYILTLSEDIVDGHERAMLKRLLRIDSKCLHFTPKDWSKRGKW
UniProt O95251, whole entry: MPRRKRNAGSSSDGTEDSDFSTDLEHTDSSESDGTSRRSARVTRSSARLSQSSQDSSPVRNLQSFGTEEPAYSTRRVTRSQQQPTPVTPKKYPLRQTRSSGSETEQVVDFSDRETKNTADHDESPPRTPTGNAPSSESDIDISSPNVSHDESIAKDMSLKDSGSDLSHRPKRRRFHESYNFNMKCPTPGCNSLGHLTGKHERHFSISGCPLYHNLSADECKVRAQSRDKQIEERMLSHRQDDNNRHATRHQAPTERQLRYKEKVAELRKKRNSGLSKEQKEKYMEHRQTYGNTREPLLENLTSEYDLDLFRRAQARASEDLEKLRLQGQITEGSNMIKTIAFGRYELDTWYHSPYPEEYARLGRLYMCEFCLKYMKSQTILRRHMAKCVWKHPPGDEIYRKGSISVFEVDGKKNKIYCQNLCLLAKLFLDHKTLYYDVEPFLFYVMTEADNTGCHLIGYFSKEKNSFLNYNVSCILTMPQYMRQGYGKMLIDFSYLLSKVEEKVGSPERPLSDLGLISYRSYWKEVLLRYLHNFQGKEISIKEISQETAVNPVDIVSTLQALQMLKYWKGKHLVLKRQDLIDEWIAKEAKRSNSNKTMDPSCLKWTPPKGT
UniProt Q92794, 507-778: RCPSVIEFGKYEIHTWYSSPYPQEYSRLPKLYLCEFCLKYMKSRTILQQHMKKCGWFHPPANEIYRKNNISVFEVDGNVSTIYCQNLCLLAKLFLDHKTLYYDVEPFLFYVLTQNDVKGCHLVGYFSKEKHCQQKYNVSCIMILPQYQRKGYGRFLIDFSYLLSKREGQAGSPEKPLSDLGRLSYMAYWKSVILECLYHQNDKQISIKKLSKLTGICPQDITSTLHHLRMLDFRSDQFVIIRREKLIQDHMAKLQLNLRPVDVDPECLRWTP
UniProt Q8WYB5, whole entry: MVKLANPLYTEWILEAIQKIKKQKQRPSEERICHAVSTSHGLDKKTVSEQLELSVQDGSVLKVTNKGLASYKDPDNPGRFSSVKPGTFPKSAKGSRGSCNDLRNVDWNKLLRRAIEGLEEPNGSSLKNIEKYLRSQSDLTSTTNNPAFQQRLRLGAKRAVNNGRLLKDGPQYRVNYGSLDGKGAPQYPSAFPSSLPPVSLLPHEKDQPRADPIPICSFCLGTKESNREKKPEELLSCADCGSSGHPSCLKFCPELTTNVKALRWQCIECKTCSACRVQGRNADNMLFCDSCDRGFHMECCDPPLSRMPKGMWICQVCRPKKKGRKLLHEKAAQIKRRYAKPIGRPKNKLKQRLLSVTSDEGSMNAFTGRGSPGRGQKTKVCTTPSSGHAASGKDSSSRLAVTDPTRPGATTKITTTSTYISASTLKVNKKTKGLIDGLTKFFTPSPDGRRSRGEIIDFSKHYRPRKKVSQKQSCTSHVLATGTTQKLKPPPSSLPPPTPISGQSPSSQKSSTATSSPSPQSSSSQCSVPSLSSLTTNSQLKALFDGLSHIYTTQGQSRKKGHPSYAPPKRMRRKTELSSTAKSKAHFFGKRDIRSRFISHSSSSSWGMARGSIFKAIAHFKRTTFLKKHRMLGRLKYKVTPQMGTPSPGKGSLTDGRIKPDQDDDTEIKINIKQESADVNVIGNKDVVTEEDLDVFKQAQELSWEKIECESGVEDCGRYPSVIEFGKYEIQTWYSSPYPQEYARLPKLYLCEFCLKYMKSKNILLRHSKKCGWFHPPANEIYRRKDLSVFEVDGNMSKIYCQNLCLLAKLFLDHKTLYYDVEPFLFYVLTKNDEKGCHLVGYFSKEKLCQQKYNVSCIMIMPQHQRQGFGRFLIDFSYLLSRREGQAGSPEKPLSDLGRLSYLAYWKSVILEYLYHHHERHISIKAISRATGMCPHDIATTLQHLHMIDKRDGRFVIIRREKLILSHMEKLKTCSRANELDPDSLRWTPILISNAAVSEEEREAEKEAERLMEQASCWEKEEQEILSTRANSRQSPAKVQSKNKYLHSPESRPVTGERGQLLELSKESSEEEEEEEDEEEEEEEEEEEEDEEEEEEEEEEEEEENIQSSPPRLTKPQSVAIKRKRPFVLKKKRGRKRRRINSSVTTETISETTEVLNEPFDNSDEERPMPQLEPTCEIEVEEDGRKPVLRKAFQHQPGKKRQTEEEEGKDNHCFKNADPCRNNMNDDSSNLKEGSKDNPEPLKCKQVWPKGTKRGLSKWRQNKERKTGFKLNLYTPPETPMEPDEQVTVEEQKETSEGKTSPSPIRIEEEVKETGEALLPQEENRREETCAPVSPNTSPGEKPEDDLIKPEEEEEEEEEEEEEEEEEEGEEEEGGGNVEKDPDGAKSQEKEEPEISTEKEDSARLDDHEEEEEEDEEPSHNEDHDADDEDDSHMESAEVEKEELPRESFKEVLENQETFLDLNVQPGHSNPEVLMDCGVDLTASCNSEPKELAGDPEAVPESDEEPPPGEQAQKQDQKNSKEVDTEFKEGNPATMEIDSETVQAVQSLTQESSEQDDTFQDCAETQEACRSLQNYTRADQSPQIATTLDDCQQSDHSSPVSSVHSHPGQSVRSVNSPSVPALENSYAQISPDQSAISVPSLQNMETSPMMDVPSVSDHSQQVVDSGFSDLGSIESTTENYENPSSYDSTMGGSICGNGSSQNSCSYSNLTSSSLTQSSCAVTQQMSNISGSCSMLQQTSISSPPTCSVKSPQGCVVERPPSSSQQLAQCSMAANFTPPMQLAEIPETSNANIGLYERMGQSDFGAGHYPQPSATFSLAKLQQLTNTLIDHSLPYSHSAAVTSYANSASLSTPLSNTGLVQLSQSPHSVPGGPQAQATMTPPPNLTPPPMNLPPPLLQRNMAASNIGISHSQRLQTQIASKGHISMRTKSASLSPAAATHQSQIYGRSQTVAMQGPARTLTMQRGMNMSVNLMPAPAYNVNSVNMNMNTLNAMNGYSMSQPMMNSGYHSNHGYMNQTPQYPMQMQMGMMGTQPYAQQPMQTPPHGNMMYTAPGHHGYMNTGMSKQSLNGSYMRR

According to BindingDB's records for patent US20240277683 (Ctxt, 2024):

Key:
Assay in all cases: Acetyltransferase Biochemical Assay
[1] = biological target: Histone acetyltransferase KAT5 (Homo sapiens, UniProt Q92993)
Description: (§1) The reactions were performed in assay buffer (100 mM Tris-HCl, pH7.8, 15 mM NaCl, 1 mM EDTA, 0.01% Tween-20, 1 mM Dithiothreitol and 0.01% m/v chicken egg white albumin). […] 11-point dilution series of the test compounds were prepared in DMSO; a volume of 100 nL was transferred using a pin tool into assay plates containing substrates, […] control reactions were included on the same plates and received the same amount of DMSO as the compound treated wells. After adding all reagents, the plates were sealed with adhesive seals and incubated for 90 min at room temperature. An additional 4 uL of assay buffer containing AlphaScreen Protein A acceptor beads […] was then added.

[2] = biological target: Histone acetyltransferase KAT7 (Homo sapiens, UniProt O95251)
Description: as §1

[3] = biological target: Histone acetyltransferase KAT6A [507-778] (Homo sapiens, UniProt Q92794)
Description: as §1

[4] = biological target: Histone acetyltransferase KAT6B (Human, UniProt Q8WYB5)
Description: as §1

SMILES | IC50 [3] | IC50 [4] | other results
COc1ccc(-c2ccn[nH]2)cc1-c1cc(NS(=O)(=O)c2c(OC)cccc2OC)no1 [US20240277683, Example 72] |  |  | IC50 [1]: 0.106 µM; IC50 [2]: 38.8 nM
COc1ccc(-c2ccn(C)n2)cc1-c1cc(NS(=O)(=O)c2c(OC)cccc2OC)no1 [US20240277683, Example 118] |  |  | IC50 [1]: 41.9 µM; IC50 [2]: 3080 nM
O=S(=O)(Cc1noc(-c2ccccc2)n1)c1ccccc1F [US20240277683, Example 68] | 92.4 µM |  | 
COc1ccccc1-c1cc(NS(=O)(=O)CCc2ccccc2)no1 [US20240277683, Example 4] |  | 23.7 µM | 
Cc1ccc(S(=O)(=O)Nc2cc(-c3cccc(Cc4ccccc4)c3)no2)cc1C [US20240277683, Example 77] | 2.2 µM |  | 
COc1ccccc1-c1cc(NS(=O)(=O)Cc2ccccc2)no1 [US20240277683, Example 2] |  | 7.77 µM | 
COc1ccccc1-c1cc(NS(=O)(=O)c2c(OC)cccc2OC)no1 [US20240277683, Example 56] |  | 3.14 µM | 
COC(=O)c1c(-c2ccc(OC)cc2)noc1NS(=O)(=O)c1ccc(C)c(C)c1 [US20240277683, Example 83] | 80.8 µM |  | 
COCc1ccc(OC)c(-c2cc(NS(=O)(=O)c3c(OC)cccc3OC)no2)c1 [US20240277683, Example 73] |  | 0.117 µM | 
